Structures are written as SMILES.

Amino acid sequences for entries named in this document (tags omitted).
UniProt P30543, whole entry: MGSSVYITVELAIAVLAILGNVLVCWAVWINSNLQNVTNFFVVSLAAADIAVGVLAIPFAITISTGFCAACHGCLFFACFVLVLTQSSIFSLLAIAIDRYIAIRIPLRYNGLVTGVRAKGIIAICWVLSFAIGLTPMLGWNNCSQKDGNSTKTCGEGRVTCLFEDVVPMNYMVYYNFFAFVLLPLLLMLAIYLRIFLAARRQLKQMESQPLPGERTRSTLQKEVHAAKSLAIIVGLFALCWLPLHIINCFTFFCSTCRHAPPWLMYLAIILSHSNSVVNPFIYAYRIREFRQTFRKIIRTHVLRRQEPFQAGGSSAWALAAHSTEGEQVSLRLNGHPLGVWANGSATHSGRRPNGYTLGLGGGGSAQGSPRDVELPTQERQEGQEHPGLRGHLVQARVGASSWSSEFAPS

Results on one molecule are retold here after patent publication US5672588A, “Purine derivatives” (priority 1995, dated 1997).

In the experiment the target is T1, adenosine A2 receptor (Rattus norvegicus, UniProt P30543).
T1 construct: from tissue
The experiment can be described thus: Adenosine A2 receptor binding in vitro, [3H]-CGS 21680 radioligand.

`C[C@H](Cc1ccccc1)Nc1ncnc2c1ncn2[C@@H]1O[C@H](CO)[C@@H](O)[C@H]1O` [(R)-PIA, N-(1-phenyl-2-propyl)adenosine, reference compound] came in with an inhibition constant (Ki) of 134 nM.

What is called Ki is the equilibrium dissociation constant of an inhibitor or competing ligand from its target. Low values mean tighter binding, high ones weaker binding.
